Patent US11786597B2, “Ionic liquids for transdermal drug delivery” (priority 2013, dated 2023)

Assay: Solubility in water (physical characterization)
Settings: 25° C.

Substance choline hexanoate [LANL-13] has a solubility in water of 500 mM.
